Experimental findings from PubChem BioAssay AID651567 (National Center for Advancing Translational Sciences (NCATS), 2012) are described below.

This is a selection; strong and weak results do not stand in their true shares. Records with an inconclusive call do not appear. Calls of active or inactive are those of the source. Calls follow the shape of the dose curve; as a rule, active = well fitted inhibition curve with a large enough effect; inconclusive = small, poorly fitted or top-dose-only effect; inactive = no such curve, though single readings can be large or run the other way.
% is scaled to controls: 0 for no effect and ±100 for the full control effect.

The test is described as follows: qHTS Assay to Find Inhibitors of Chronic Active B-Cell Receptor Signaling: Hit Validation in OCI-Ly3 Assay. Particulars: OCI-Ly3 IkB-luciferase reporter, Chroma-Glo luminescence, 4 h; at 46.1 µM (top of the series). From the text: Diffuse large B-cell lymphoma (DLBCL) is the most common category of non-Hodgkin lymphoma, with ~20,000 new cases per year in the United States. DLBCL should be regarded as a collection of different neoplasms. Microarray gene expression analysis has defined two principal types of DLBCL, named for their similarity to normal B cell stages or activation states: a germinal center B-cell (GCB) type, and an activated B-cell (ABC) type. In ABC-DLBCL, a constitutive high-level activity of the NF-kappaB family of transcription factors has been observed (1) and NF-kappaB target genes are more highly expressed in ABC primary tumors than in GCB tumors. […]
Cells were seeded in 1536-well plates at 5000 cells/3ul in IMDM medium containing 0.5% FBS, w/o phenol red, L-glutamine, 25 mM HEPES, 3 mg/ml sodium bicarbonate. […] The plates were measured on a ViewLux plate reader for green luminescence (540/20 nm filter) and red luminescence (618/8 nm filter). The green and red luminescent signals were corrected for red and green luminescence filter overlap using previously determined filter calibration constants (determined using the procedure outlined in the Promega Technical Manual). The %Activity was determined from the ratio of corrected green/red luminescent values. […] The concentration-effect curves were then classified based on curve quality (r2), response magnitude and degree of measured activity. […]
In general terms: In qHTS, concentration-response curves come from the screen itself.
On to `COc1ccc(C2=NCC(CBr)S2)cc1` (stereo unspecified), for which the activity change, negative = inhibition was inactive: 0.165%.
